Source: patent US20090275570A1, “SUBSTITUTED HETEROCYCLES AND THEIR USE AS CHK1, PDK1 AND PAK INHIBITORS” (ASTRAZENECA AB, priority 2005, published 2009)

Target: T1, CHK1 kinase (Homo sapiens, UniProt O14757)
T1 construct: The kinase domain is expressed in baculovirus and purified by the GST tag; GST; made in house; host or cells: baculovirus system (insect cells implied)
T1 sequence (O14757 9-265 limits assumed): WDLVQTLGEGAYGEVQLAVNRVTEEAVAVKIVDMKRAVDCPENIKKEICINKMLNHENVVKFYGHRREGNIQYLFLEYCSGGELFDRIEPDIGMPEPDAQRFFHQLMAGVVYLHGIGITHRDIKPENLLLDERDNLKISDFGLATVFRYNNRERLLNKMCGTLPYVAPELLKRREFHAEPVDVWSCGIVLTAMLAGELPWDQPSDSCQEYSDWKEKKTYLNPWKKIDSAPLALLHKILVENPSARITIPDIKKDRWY
Test: Checkpoint Kinase 1 Assay (SPA)
Assay type: biochemical
Procedure: Checkpoint Kinase 1 Assay: This in vitro assay measures the inhibition of CHK1 kinase by compounds. The kinase domain is expressed in baculovirus and purified by the GST tag. Purified protein and biotinylated peptide substrate (Cdc25C) is then used in a 384 well automated Scintillation Proximity Assay (SPA). Specifically, peptide, enzyme and reaction buffer are mixed and aliquoted into a 384 well plate containing dilution series of compounds and controls. Cold and hot ATP are then added to initiate the reaction. After 2 hours, a SPA bead slurry, […] and EDTA are added to stop the reaction and capture the biotinylated peptide. Plates are then counted on a Topcount. Data is analyzed and IC50s determined for individual compounds.

COc1cccc(-c2cc3c(N[C@H]4CCCNC4)ncc(C(N)=O)c3s2)c1 [Example 5, 2-(3-methoxyphenyl)-4-[(3S)-piperidin-3-ylamino]thieno[3,2-c]pyridine-7-carboxamide]
IC50: 16 nM
